Test results reported in patent US20070141120A1, “Peptide having an ace inhibiting effect” (priority 2003, published 2007).

By UniProt entry, the sequences of proteins in these tests, tags left out. Residues count along the entry.
UniProt P12821, 30-1306, species assumed: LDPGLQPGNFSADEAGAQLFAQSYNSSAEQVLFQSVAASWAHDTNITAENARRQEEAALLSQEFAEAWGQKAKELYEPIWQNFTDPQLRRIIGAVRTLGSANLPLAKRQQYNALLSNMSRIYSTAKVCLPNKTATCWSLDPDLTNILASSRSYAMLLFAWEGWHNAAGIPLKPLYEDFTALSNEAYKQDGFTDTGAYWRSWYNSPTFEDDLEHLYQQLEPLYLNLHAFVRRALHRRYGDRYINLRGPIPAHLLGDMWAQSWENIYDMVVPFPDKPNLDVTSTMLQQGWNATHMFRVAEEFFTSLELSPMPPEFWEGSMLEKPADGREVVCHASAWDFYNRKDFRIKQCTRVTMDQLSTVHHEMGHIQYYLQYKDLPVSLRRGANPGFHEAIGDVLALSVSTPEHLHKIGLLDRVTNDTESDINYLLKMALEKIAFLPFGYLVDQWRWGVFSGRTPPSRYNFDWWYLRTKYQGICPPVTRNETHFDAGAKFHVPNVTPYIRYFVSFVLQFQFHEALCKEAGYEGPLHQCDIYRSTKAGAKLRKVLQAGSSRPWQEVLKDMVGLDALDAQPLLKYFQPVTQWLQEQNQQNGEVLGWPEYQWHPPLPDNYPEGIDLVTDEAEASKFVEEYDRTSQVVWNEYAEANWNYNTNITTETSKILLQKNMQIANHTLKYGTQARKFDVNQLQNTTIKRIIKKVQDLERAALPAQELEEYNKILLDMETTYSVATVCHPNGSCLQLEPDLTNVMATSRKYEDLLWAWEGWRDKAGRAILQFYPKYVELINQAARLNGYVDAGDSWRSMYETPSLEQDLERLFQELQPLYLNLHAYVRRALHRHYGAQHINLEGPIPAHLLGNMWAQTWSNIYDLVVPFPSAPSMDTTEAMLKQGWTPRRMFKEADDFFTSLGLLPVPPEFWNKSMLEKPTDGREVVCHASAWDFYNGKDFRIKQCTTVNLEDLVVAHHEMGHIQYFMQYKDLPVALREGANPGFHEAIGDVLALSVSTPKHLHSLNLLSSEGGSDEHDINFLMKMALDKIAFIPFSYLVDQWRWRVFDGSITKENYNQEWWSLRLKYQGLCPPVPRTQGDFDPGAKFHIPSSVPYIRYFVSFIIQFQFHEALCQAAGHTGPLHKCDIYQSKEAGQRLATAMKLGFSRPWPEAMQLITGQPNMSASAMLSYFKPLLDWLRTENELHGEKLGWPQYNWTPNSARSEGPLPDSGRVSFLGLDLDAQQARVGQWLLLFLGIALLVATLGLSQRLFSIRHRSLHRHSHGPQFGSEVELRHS

Experiments:
ACE [1] = test: ACE-inhibition assay 2: modified Matsui assay; assay type: biochemical; conditions: substrate Hip-His-Leu, pH 8.3, 37° C., 30 min
Procedure: This ACE inhibition activity was assayed according to the method of Matsui et al. (Matsui, T. et al. (1992) Biosci. Biotech. Biochem. 56: 517-518) with the modifications described below.
For each sample 75 μl 3 mM hippuryl histidine leucine (Hip-His-Leu, Sigma chemicals Co.; the chemical was dissolved in 250 mM Borate containing 200 mM NaCl, pH 8.3); 20 μl 0.1 U/ml ACE (obtained at Sigma) or H2O, and 25 μl sample or H2O were mixed (see Table 1). The mixtures were incubated at 37° C. and stopped after 30 min by adding 125 μl 0.5 M HCl. Subsequently, 225 μl bicine/NaOH solution (1 M NaOH:0.25 M bicine (4:6)) was added, followed by 25 μl 0.1 M TNBS (2,4,6-Trinitrobenzenesulfonic acid, Fluka, Switzerland; in 0.1 M Na2HPO4). After incubation for 20 min. at 37° C., 4 ml 4 mM Na2SO3 in 0.2 M NaH2PO4 was added and the absorbance at 416 nm was measured with UV/Vis spectrophotometer (Shimadzu UV-1601 with a CPS controller, Netherlands).
The amount of ACE inhibition (ACEI) activity was calculated as a percentage of inhibition compared with the conversion rate of ACE in the absence of an inhibitor: ACEI (%)=(((C1−C2)−(S1−S2))/(C1−C2))*100 (1)
C1=Absorbance without ACE inhibitory component (=max. ACE activity) [AU].
C2=Absorbance without ACE inhibitory component and without ACE (background) [AU].
S1=Absorbance in the presence of ACE and the ACE inhibitory component [AU].
S2=Absorbance in the presence of the ACE inhibitory component, but without ACE [AU].

ACE [2] = biological target: ACE (Homo sapiens, UniProt P12821); test: ACE-inhibition assay 1: enzyme based assay (EBA); assay type: biochemical; conditions: substrate Abz-FRK-(Dnp)P-OH, pH 7.0, fluorescence
Procedure: ACE and a synthetic substrate (Abz-FRK-(Dnp)P-OH) were used in the ACE-inhibition assay performed in white optiplate-96 microplates (Packard Bioscience). The substrate was a kind gift of Adriana K. Carmona (Dept. of Biophysics, Escola Paulista de Medivina, Universidae Federal de Sao Paulo, Brazil). Stock solutions of Abz-FRK-(Dnp)P-OH were prepared in DMSO. […] The assay buffer composition was 100 mM tris/HCl buffer pH 7.0 containing 100 mM NaCl. Forty μl sample solution in assay buffer was added to each well. In case of the controls only buffer was added. The samples were measured in threefold in a fluorophotometer (Fluostar, BMG labtechnologies). […] The ACE activity was measured for 10 cycles (about 10 minutes) by measuring the fluorescence at λex=320 nm and ξem=420 nm. The raw data was converted to the slope/sec and the ACE inhibition activity was calculated using the equation below. ACE inhibition (%)=[1−(Smean−Bmean)/(Cmean−Bmean)]*100
Bmean=average result of background (substrate)

Row | SMILES | IC50 (ACE [1]) | IC50 (ACE [2])
1 | CC(C)C[C@H](NC(=O)[C@@H]1CCCN1C(=O)[C@H](CC(C)C)NC(=O)[C@@H](N)Cc1c[nH]cn1)C(=O)N1CCC[C@H]1C(=O)O [HLPLP] | 17 µM | 15 µM
2 | CC[C@H](C)[C@H](N)C(=O)N[C@H](C(=O)N1CCC[C@H]1C(=O)O)[C@@H](C)O [ITP] | 10 µM | 30 µM
3 | CC(C)[C@H](N)C(=O)N1CCC[C@H]1C(=O)N1CCC[C@H]1C(=O)O [VPP] | 3 µM | 20 µM
4 | N[C@@H](CO)C(=O)N1CCC[C@H]1C(=O)N1CCC[C@H]1C(=O)O [SPP] | > 50 µM | 75 µM
5 | CC[C@H](C)[C@H](N)C(=O)N1CCC[C@H]1C(=O)N1CCC[C@H]1C(=O)O [IPP] | 2 µM | 12 µM
6 | CC[C@H](C)[C@H](N)C(=O)N[C@H](C(=O)N[C@@H](C)C(=O)N[C@@H](CCC(=O)O)C(=O)N[C@@H](CCCCN)C(=O)O)[C@@H](C)CC [IIAEK] | > 20 µM | 
